Measured values taken from PubChem BioAssay AID720551 (National Center for Advancing Translational Sciences (NCATS), 2013).
This is a selection; strong and weak results do not stand in their true shares. Some of these compounds have results that are not shown, active ones among them. Calls of active or inactive are those of the source.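 Rule for the calls: active = maximum activity change below -70%; inconclusive = maximum activity change between -70% and -50%; inactive = maximum activity change above -50%.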

Protein sequences, listed by entry. Tags and fused reporters are not part of them.
UniProt Q12809, whole entry: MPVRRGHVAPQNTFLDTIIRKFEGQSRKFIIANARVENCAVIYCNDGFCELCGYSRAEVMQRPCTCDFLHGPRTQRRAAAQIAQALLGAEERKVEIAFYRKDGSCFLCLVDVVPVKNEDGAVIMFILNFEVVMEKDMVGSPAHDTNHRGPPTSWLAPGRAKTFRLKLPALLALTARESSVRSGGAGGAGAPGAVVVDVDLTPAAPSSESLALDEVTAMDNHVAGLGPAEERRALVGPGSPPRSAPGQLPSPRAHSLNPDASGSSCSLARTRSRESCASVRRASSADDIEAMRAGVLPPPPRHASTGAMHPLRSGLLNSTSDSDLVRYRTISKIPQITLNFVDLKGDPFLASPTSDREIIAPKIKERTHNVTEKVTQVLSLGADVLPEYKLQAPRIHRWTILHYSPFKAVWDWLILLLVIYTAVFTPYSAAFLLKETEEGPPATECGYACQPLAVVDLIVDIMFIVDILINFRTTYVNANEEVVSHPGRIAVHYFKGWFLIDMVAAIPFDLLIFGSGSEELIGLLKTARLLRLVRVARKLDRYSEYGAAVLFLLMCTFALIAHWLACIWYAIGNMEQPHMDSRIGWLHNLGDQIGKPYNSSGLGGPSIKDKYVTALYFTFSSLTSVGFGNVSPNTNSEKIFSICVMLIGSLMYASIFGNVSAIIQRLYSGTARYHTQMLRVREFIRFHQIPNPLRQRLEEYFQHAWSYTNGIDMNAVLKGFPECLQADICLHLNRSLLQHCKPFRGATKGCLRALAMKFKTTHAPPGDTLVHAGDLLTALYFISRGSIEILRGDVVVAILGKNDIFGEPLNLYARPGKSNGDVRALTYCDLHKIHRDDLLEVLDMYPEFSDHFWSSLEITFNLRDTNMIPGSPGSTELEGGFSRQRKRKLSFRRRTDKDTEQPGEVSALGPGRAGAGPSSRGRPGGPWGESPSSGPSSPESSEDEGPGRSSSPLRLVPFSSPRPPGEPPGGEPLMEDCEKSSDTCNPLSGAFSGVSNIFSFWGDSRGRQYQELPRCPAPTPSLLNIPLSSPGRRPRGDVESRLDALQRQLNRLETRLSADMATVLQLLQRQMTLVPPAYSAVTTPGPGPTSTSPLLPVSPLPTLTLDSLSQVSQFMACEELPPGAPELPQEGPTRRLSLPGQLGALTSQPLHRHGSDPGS

Target: Voltage-gated inwardly rectifying potassium channel KCNH2 (Homo sapiens) (UniProt Q12809)
Test: qHTS for Inhibitors of KCHN2 3.1: Wildtype qHTS
Settings: U2OS, BacMam KCNH2, thallium flux FluxOr; at 1.84 µM; stronger effect = lower value
Description: Many antipsychotic drugs that inhibit the neurotransmitter dopamine also bind to hERG1 channel which might help explain their antipsychotic activity but also produces cardiac side effects. The discovery of the novel KCNH2 3.1 isoform offers a potential new target for the development of antipsychotic drugs without cardiac side effects. This proposal will use a high throughput thallium flux assay developed for KCNH2 to screen compounds that modulate the activity of KCNH2 3.1. The wild type KCNH2 channel will also be screened in parallel to help define the selective modulators of this KCNH2 3.1 potassium channel. The resulting compounds will be validated in electrophysiology experiments. The availability of animal models will allow future testing in vivo for effects on memory and other aspects of animal physiology linked with psychosis. NIH Chemical Genomics Center [NCGC] NIH Molecular Libraries Probe Centers Network [MLPCN] MLPCN Grant: MH096539 Assay Submitter (PI): James Barrow, Johns Hopkins University, Lieber Institute for Brain Development
U2OS cells were resuspended in cell media containing 10% fetal calf serum (FCS) at a concentration of 2 million cells / mL. The solution was treated with the Wild-type virus at 2.03 x 10^8 / mL and allowed to incubate at room temperature in the dark. After 4 hours of incubation, DMEM + 10% fetal bovine serum (FBS) was added to the cell solution. Three microliter was then dispensed into a 1536 tissue culture treated black assay plates which were incubated overnight at 37 C. Two microliter of loading buffer (HBSS + HEPES + Red40 dye quencher + FluxOr dye) was added and the assay plates were incubated for 45 min at room temperature in the dark. […] A stimulation buffer was added to the plate and the second kinetic read (2 min) was obtained. The rate constant was calculated from the kinetic reads and normalized to the positive and negative DMSO controls.
% is set by controls: 0 for no effect and ±100 for the full control effect.

Row | SMILES | activity change
1 | COc1ccc(Cl)cc1C(=O)NCC1(N(C)C)CCCCC1 | inactive: 20.9%
2 | COc1cccc(C(=O)NCC2(N3CCCCC3)CCCCC2)c1 | inactive: 6.74%
3 | O=C(NCC1(N2CCCCC2)CCCCC1)c1cccc(Cl)c1 | inactive: 25.6%
4 | CN(C)C1(CNC(=O)c2ccc(Br)cc2)CCCCC1 | inactive: 39.2%
5 | COc1cc(C(=O)NCC2(N(C)C)CCCCC2)c([N+](=O)[O-])cc1OC | inactive: 4.24%
6 | C=C(C)C#CC(O)(C(=O)OC1CCN(C)CC1)c1ccccc1 (stereo unspecified) | inactive: 10%
7 | COc1ccc(Br)c(C(=O)NCC2(N3CCCCC3)CCCCC2)c1 | inactive: -7.56%
8 | O=C(OCCN1CCCC1)C(O)(c1ccccc1)c1ccccc1 | inactive: 6.28%
9 | CC(C)Oc1ccc(C(=O)NCC2(N(C)C)CCCCC2)cc1 | inactive: 27.4%
10 | CN(C)c1cccc(C(=O)NCC2(N(C)C)CCCCC2)c1 | inactive: -16.8%
11 | O=C(OC1CN2CCC1CC2)C(CO)(c1ccccc1)c1ccccc1 (stereo unspecified) | inactive: 2.56%
12 | COc1cc(SC)ccc1C(=O)NCC1(N(C)C)CCCCC1 | inactive: 2.15%
13 | CCN(CC)CC(C)C(C)OC(=O)C(O)(c1ccccc1)c1ccccc1 (stereo unspecified) | inactive: 8.72%
14 | CC(C)N1C(=O)CC2(CCN(CCOC(=O)C(O)(c3ccccc3)c3ccccc3)CC2)C1=O | inactive: 4.66%
15 | Cc1ccc(C(=O)NCC2(N3CCCCC3)CCCCC2)cc1 | inactive: 5.3%
16 | O=C(NCC1(N2CCCCC2)CCCCC1)c1cc([N+](=O)[O-])ccc1Cl | inactive: -0.608%
17 | CN1[C@@H]2CC[C@H]1CC(OC(=O)C(O)(c1ccccc1)c1ccccc1)C2 (stereo partly specified) | inactive: 12.1%
18 | O=C(NCC1(N2CCCCC2)CCCCC1)c1cc(F)c(F)cc1Cl | inactive: 6.51%
19 | C=CCN1CCN(CCOC(=O)C(O)(c2ccccc2)c2ccccc2)CC1 | inactive: 1.47%
20 | COc1ccc(C(=O)NCC2(N(C)C)CCCCC2)cc1 | inactive: 4.33%
21 | O=C(NCC1(N2CCCCC2)CCCCC1)c1cccc(Br)c1 | inactive: 1.42%
22 | Cc1cc(C(=O)NCC2(N3CCCCC3)CCCCC2)ccc1[N+](=O)[O-] | inactive: 2.06%
23 | CCN1CCCC(OC(=O)C2(O)c3ccccc3C=Cc3ccccc32)C1 (stereo unspecified) | inactive: 27.8%
24 | CN(C)C1CCCC1OC(=O)C(O)(c1ccccc1)c1ccccc1 (stereo unspecified) | inactive: 10.1%
25 | CN(C)c1ccc(C(=O)NCC2(N(C)C)CCCCC2)cc1 | inactive: -8.87%
26 | Cc1ccccc1C(=O)NCC1(N2CCCCC2)CCCCC1 | inactive: 13.7%
